Drawing on PubChem BioAssay AID2100 (National Center for Advancing Translational Sciences (NCATS), 2009), this text covers activity change, negative = inhibition for 75 compounds.

The list shows a part of the results, in another mix than the full data. Results filed as inconclusive are left out. Active and inactive are the calls of the source. Calls come from the whole dose curve; as a rule, active = well fitted inhibition curve with a large enough effect; inconclusive = small, poorly fitted or top-dose-only effect, or another doubt; inactive = no such curve, though single readings can be large or run the other way.

The target of the experiment is Lysosomal alpha-glucosidase (Homo sapiens) (UniProt P10253). Put plainly: qHTS Assay for Inhibitors and Activators of Human alpha-Glucosidase Cleavage of Glycogen.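 Note: 0% = full enzyme reaction and -100% = no-enzyme basal signal; the screen sought inhibitors and activators.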 As to conditions: recombinant GAA, glycogen substrate, Amplex Red glucose oxidase fluorescence; at 76.4 µM (top of the series). From the text:
NIH Chemical Genomics Center [NCGC] NIH Molecular Libraries Probe Production Centers Network [MLPCN] MLPCN Grant: R03 MH084841-01 Assay Submitter (PI): Wei Zheng NCGC Assay Overview: Alpha-glucosidase is responsible for the hydrolysis of terminal, non-reducing 1,4-linked alpha-D-glucose residues, which releases alpha-D-glucose. It is a lysosomal hydrolase that is required for the degradation of a small percentage (1-3%) of cellular glycogen in humans. Deficiency of this enzyme results in glycogen-storage disease type II (GSDII), also referred to as Pompe disease, an autosomal recessive disorder. Structurally normal glycogen is accumulated in the lysosomes and cytoplasm in affected patients, primarily in muscle tissues. Excessive glycogen storage within lysosomes may interrupt normal functioning of other organelles and leads to cellular injury. In turn, this leads to enlargement and dysfunction of the entire organ involved (eg: cardiomyopathy and muscle weakness). It has been reported that the improper folding and trafficking of alpha-glucosidase resulting from genetic mutations may account for a significant number of Pompe patients. […] We optimized this alpha-glucosidase assay in 1536-well plate format for identification of novel small molecule inhibitors or activators with structures other than the sugar analogs in order to develop new pharmacological chaperones. Previous assays of alpha-Glucosidase have utilized a non-natural fluorescent substrate to probe enzyme activity. The present assay measures enzyme activity on glycogen using a coupled-assay system to glucose oxidase.
NCGC Assay Protocol Summary: This is an enzyme assay using glycogen from bovine liver (Sigma catalog #: G0885) as the substrate and recombinant human alpha-glucosidase as the enzyme preparation. Upon hydrolysis of the substrate, the glucose product can be detected using the Amplex Red Glucose Oxidase Assay Kit (Invitrogen catalog #: A22189). The product of this reaction can be read with a fluorescence plate reader with an excitation at 573 nm and an emission at 610 nm. Data were normalized to the controls for basal activity (without enzyme) and 100% activity (with enzyme). The AC50 values were determined from concentration-response data modeled with the standard Hill equation. Assay buffer for enzyme reaction: 50 mM citric acid (titrated with potassium phosphate to pH 5.0), 0.01% Tween-20 (pH 5.0 is an optimal condition for this enzyme assay) Assay buffer for Amplex Red reaction: Tris-HCl, pH 7.5 1536-well assay protocol for the alpha-glucosidase assay: (1) Add 2 ul/well alpha-glucosidase enzyme solution (4 nM final) (2) Add 23 nL compounds in DMSO solution. The final titration was 0.7 nM to 77 uM. (3) Add 1 ul of glycogen substrate solution (30 ug) (4) Incubate at 37 C for 40 min (5) Add 2 ul tris-HCl buffer with Amplex Red reagents (6) Incubate 45 min at room temperature. (7) Detect the assay plate in a ViewLux plate reader (PerkinElmer) with Ex=573 nm and Em=610nm. Keywords: Alpha-glucosidase, Pompe Disease, pharmacological chaperone, chaperone therapy, high throughput screening, alpha-glucosidase inhibitor, MLSMR, MLSCN, NIH Roadmap, qHTS and NCGC
(qHTS replaces the single test concentration by a dilution series.)
On to `CC(C)(C)c1ccc(OP(C)(=O)Nc2ccc(SC(F)(F)F)cc2)cc1` (stereo not given), for which the activity change, negative = inhibition was inactive: -11.6%.

Take `Cc1cccc(C)c1OP(C)(N)=O` (stereo not given): the activity change, negative = inhibition was inactive: 1.69%. For `O=[N+]([O-])c1ccc2c(c1)C=Nc1ccccc1O2`, the activity change, negative = inhibition was inactive: -27.1%. Consider `COc1ccccc1OP(C)(=O)Nc1cc(Cl)ccc1C` (stereo not given), for which the activity change, negative = inhibition was inactive: -9.58%. Under `COc1ccc(OP(C)(=O)Nc2cccc(F)c2)cc1` (stereo not given) stands inactive: 1.35%; under `Cc1cc(C)cc(OP(C)(N)=O)c1` (stereo not given), inactive: 6.08%; under `CCOC(=O)c1ccc(NP(C)(=O)Oc2ccccc2)cc1` (stereo not given), inactive: -2.32%. Consider `COc1ccccc1OP(C)(=O)Nc1ccc(C)cc1` (stereo not given), for which the activity change, negative = inhibition is inactive: -3.05%. In the case of `Cc1ccc(NP(C)(=O)Oc2ccccc2)c(C)c1` (stereo not given) it was inactive: 1.07%; in that of `CCN(CC)CCCOC(=O)C(O)(c1ccccc1)c1ccccc1`, inactive: 4.44%. Under `CCc1ccc(OP(C)(=O)N2CCN(c3ccc([N+](=O)[O-])cc3)CC2)cc1` (stereo not given) stands inactive: -7.16%; under `CP(=O)(NC(=O)Nc1ccccc1)Oc1ccccc1` (stereo not given), inactive: -2.67%; under `Cc1cc(C)cc(OP(C)(=O)Nc2ccc(SC(F)(F)F)cc2)c1` (stereo not given), inactive: -17.9%. Turning to `Cc1cccc(C)c1OP(C)(=O)Nc1ccc(SC(F)(F)F)cc1` (stereo not given), the activity change, negative = inhibition is inactive: 5.33%.

`CP(=O)(Nc1ccc(SC(F)(F)F)cc1)Oc1ccc(Cl)cc1` (stereo not given): the activity change, negative = inhibition was inactive: -8.08%.

As to `CP(=O)(Oc1ccccc1)OC(c1ccccc1)C(F)(F)F` (stereo not given), the activity change, negative = inhibition was inactive: -1.67%. Under `CP(=O)(Nc1ccccn1)Oc1ccc(Cl)cc1` (stereo not given) stands inactive: 2.82%. Under `CCOP(C)(=S)SCC(=O)NC(C)C(=O)O` (stereo not given) stands inactive: -14.7%. Under `CCOC(=O)c1ccc(NP(C)(=O)Oc2ccc(OC)cc2)cc1` (stereo not given) stands inactive: 19.8%; under `COc1ccccc1OP(C)(=O)Nc1ccccc1` (stereo not given), inactive: 4.44%; under `CP(=O)(Nc1ccccc1Br)Oc1ccccc1` (stereo not given), inactive: 13.4%. Regarding `CP(=S)(Nn1cnnc1)Oc1ccccc1` (stereo not given), the activity change, negative = inhibition is inactive: 3.04%.

Take `O=[N+]([O-])c1cc([N+](=O)[O-])c(Nc2nnnn2CCO)c([N+](=O)[O-])c1`: the activity change, negative = inhibition is inactive: 0.593%. Take `CP(=O)(Nc1ccc(SC(F)(F)F)cc1)Oc1ccccc1` (stereo not given): the activity change, negative = inhibition is inactive: -8.16%. In the case of `CCCOc1ccc(NP(C)(=O)Oc2ccc(Cl)cc2)cc1` (stereo not given) it was inactive: -3.51%; in that of `COc1ccccc1OP(C)(=O)Nc1c(C)cccc1C` (stereo not given), inactive: 1.21%; in that of `CN1CCCCC1COC(=O)C1(O)c2ccccc2CCc2ccccc21` (stereo not given), inactive: -12.3%. Consider `O=[N+]([O-])c1cc([N+](=O)[O-])c(-n2nnc3ccccc32)c([N+](=O)[O-])c1`, for which the activity change, negative = inhibition is inactive: 3.89%.

With `Cc1nc2ccc3ccccc3c2s1.O=[N+]([O-])c1cc([N+](=O)[O-])c(O)c([N+](=O)[O-])c1`, the activity change, negative = inhibition was inactive: 2.18%. Under `Cc1cc(C)cc(OP(C)(=O)Nc2ccc(C)cc2C)c1` (stereo not given) stands inactive: -1.71%; under `CCOC(=O)c1ccc(NP(C)(=O)Oc2cc(C)cc(C)c2)cc1` (stereo not given), inactive: 14.4%.

As for `COc1ccccc1OP(C)(=O)Nc1cccc(Br)c1` (stereo not given), the activity change, negative = inhibition was inactive: -5.28%. Under `CP(=O)(Nc1cccc(Br)c1)Oc1ccccc1` (stereo not given) stands inactive: -5.47%. For `Cc1cc(C)cc(OP(C)(=O)Nc2ccccn2)c1` (stereo not given), the activity change, negative = inhibition was inactive: 12.6%.

Take `Cc1ccc(C)c(NP(C)(=O)Oc2ccccc2)c1` (stereo not given): the activity change, negative = inhibition was inactive: -4.82%. On to `CC1=NCCc2c1[nH]c1ccccc21.O=[N+]([O-])c1cc([N+](=O)[O-])c(O)c([N+](=O)[O-])c1`, for which the activity change, negative = inhibition was inactive: -4.85%. As to `COc1ccc(OP(C)(=O)Nc2ccc(SC(F)(F)F)cc2)cc1` (stereo not given), the activity change, negative = inhibition is inactive: 0.264%. In the case of `CCOC(=O)c1ccc(NP(C)(=O)Oc2ccc(F)cc2)cc1` (stereo not given) it was inactive: 2.06%; in that of `CP(=O)(Nc1ccccc1)Oc1ccc(F)cc1` (stereo not given), inactive: 3.89%. Take `CCN(CC)CCCOC(=O)C(O)(c1ccccc1)C1CCCCC1` (stereo not given): the activity change, negative = inhibition is inactive: 6.12%. `CC(C)c1ccc(OP(C)(=O)Nc2ccc(SC(F)(F)F)cc2)cc1` (stereo not given): the activity change, negative = inhibition is inactive: -16.4%.

On to `CP(=O)(Nc1ccccc1F)Oc1ccccc1` (stereo not given), for which the activity change, negative = inhibition is inactive: 6.06%.

With `O=C(OCCN1CCN(CCOCc2ccccc2)CC1)C(O)(c1ccccc1)c1ccccc1`, the activity change, negative = inhibition was inactive: 4.84%.

With `CCOP(C)(=S)SCC(=O)NC(C)(CC)C(=O)O` (stereo not given), the activity change, negative = inhibition is inactive: 7.26%. `CP(=O)(Nc1ccc(SC(F)(F)F)cc1)Oc1ccc(F)cc1` (stereo not given): the activity change, negative = inhibition was inactive: -4.56%.

In the case of `Cc1ccccc1NP(C)(=O)Nc1ccccc1C`, the activity change, negative = inhibition was inactive: -2.58%. Under `CP(=O)(Nc1ccc2c(c1)OCCO2)Oc1ccccc1` (stereo not given) stands inactive: 1.74%; under `COc1ccc(NP(C)(=O)Oc2ccccc2OC)cc1` (stereo not given), inactive: 6.05%. In the case of `CN(C)CCOC(=O)C(O)(c1ccccc1)C1CCCCC1` (stereo not given) it was inactive: 5.62%; in that of `Cc1cc(-c2cccc3ccccc23)c(C)cn1.O=[N+]([O-])c1cc([N+](=O)[O-])c(O)c([N+](=O)[O-])c1`, inactive: 3.76%. In the case of `O=[N+]([O-])c1ccc(OP2(=O)COCCO2)cc1` (stereo not given) it was inactive: -10.1%; in that of `CP(=O)(OC12CC3CC(CC(C3)C1)C2)OC12CC3CC(CC(C3)C1)C2`, inactive: -8.52%. For the compound `CCOC(=O)c1ccc(NP(C)(=O)Oc2ccc(Cl)cc2)cc1` (stereo not given), the activity change, negative = inhibition was inactive: -6.2%. In the case of `CP(=O)(Oc1ccccc1)N1CCOC1=O` (stereo not given) it was inactive: 8.24%. Regarding `CCc1ccc(OP(C)(=O)Nc2cccnc2)cc1` (stereo not given), the activity change, negative = inhibition is inactive: -9.72%.

On to `O=C(OCCCN1CCCC1)C(O)(c1ccccc1)C1CCCCC1` (stereo not given), for which the activity change, negative = inhibition is inactive: -3.76%.

For `CCN(CC)CC(O)COC(=O)C(O)(c1ccccc1)C1CCCCC1` (stereo not given), the activity change, negative = inhibition is inactive: -1.72%.

As for `COc1ccc(OP(C)(=O)Nc2ccc(Br)cc2)cc1` (stereo not given), the activity change, negative = inhibition was inactive: -0.954%. In the case of `CN(C)C(=O)c1c([N+](=O)[O-])cc([N+](=O)[O-])cc1[N+](=O)[O-]` it was inactive: 7.43%. For `CP(=O)(Nc1ccc(Cl)cc1)Oc1ccc(F)cc1` (stereo not given), the activity change, negative = inhibition is inactive: -8.41%. For `CC(C)(C)c1ccc(OP(C)(=O)O)cc1`, the activity change, negative = inhibition was inactive: 8.38%.

On to `COc1ccccc1OP(C)(=O)Nc1ccccc1Br` (stereo not given), for which the activity change, negative = inhibition was inactive: -18.1%. In the case of `CN(C)CCOC(=O)C(O)(c1ccccc1)C1CCCC1` (stereo not given) it was inactive: 6.85%. Under `COc1ccc(OP(C)(=O)Nc2ccccn2)cc1` (stereo not given) stands inactive: 8.24%; under `COc1ccccc1OP(C)(=O)Nc1ccc(Br)cc1` (stereo not given), inactive: 4.43%; under `CCc1ccc(OP(C)(=O)O)cc1`, inactive: -6.88%. On to `CP(=O)(Nc1ccccn1)Oc1ccccc1` (stereo not given), for which the activity change, negative = inhibition was inactive: 10.9%. In the case of `COc1ccccc1OP(C)(=O)Nc1ccc(C)cc1C` (stereo not given) it was inactive: 1.94%; in that of `O=[N+]([O-])c1cc([N+](=O)[O-])c(Nc2ccccn2)c([N+](=O)[O-])c1`, inactive: -4.98%. Regarding `Cc1c(NP(C)(=O)Oc2ccc(C(C)C)cc2)c(=O)n(-c2ccccc2)n1C` (stereo not given), the activity change, negative = inhibition is inactive: 2.43%. In the case of `COc1ccc(OP(C)(=O)Nc2ccccc2Br)cc1` (stereo not given) it was inactive: -4.84%; in that of `COc1ccccc1OP(C)(=O)Nc1ccc(C)c(C)c1` (stereo not given), inactive: 11.1%; in that of `Cc1cc(C)cc(OP(C)(=O)Nc2cccc(C(F)(F)F)c2)c1` (stereo not given), inactive: -18.1%. Under `CP(=O)(OCCOc1ccccc1)OCCOc1ccccc1` stands inactive: -4.42%; under `CP(=O)(Nc1ccc(Cl)cc1Cl)Oc1ccccc1` (stereo not given), inactive: 6.82%.
